Results taken from PMC12145819, “Challenging activity and signaling bias in tachykinin NK1 and NK2 receptors by truncated neuropeptides” (The Journal of Biological Chemistry, 2025).

Chains of the proteins cited; added tags and fusions are not shown.
UniProt P21452, whole entry: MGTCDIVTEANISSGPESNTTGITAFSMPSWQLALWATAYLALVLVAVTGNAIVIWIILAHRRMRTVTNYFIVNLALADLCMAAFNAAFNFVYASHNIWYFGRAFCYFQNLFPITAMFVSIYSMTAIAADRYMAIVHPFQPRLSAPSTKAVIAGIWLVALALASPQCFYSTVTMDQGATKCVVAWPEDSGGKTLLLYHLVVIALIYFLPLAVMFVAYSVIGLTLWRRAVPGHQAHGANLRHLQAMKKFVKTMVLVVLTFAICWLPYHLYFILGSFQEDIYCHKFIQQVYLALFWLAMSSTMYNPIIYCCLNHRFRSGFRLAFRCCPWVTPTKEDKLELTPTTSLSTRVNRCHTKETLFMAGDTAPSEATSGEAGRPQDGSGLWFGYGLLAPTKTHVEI

Tests used:
[1] = target: T1, NK2R WT (human TACR2) (Homo sapiens, UniProt P21452); assay: BRET-based cAMP assay (Gs activation), NK2R; assay type: cell-based; conditions: Fig. S2A; compared with the other receptor/agonist conditions
T1 construct: host or cells: COS7 cells, transient calcium-precipitation transfection

[2] = target: T1, NK2R WT (human TACR2); assay: IP3 accumulation assay (Gq activation), NK2R; assay type: cell-based; conditions: Fig. S2B; compared with SP on NK1R and NKA on NK1R and NK2R

Q: `CSCC[C@H](NC(=O)[C@H](CC(C)C)NC(=O)CNC(=O)[C@H](Cc1ccccc1)NC(=O)[C@H](Cc1ccccc1)NC(=O)[C@H](CCC(N)=O)NC(=O)[C@H](CCC(N)=O)NC(=O)[C@@H]1CCCN1C(=O)[C@H](CCCCN)NC(=O)[C@@H]1CCCN1C(=O)[C@@H](N)CCCNC(=N)N)C(N)=O` [SP, substance P] was tested. Which “potency of SP activation of NK2R in BRET-based cAMP assay” value [1] did it give?
A: The value was “substantially lower potency, differing by several orders of magnitude”.

Q: And the “potency of SP activation of NK2R in IP3 accumulation assay” value [2]?
A: Its value is “two orders of magnitude lower”.
